The values below come from patent US20110111016A1, “NON-DNA BASE-CONTAINING POLYNUCLEOTIDE COMPOSITIONS AND THEIR USE FOR THE MODULATION OF IMMUNE RESPONSES” (priority 2009, published 2011).

In this data set the test system is C57BL/6 mice. The data set is described as follows: Antibody response against human serum albumin in mice (anti-HSA IgG ELISA end-point titers). The settings on record: HSA 1 μg + polynucleotide 10 μg in saline, no particulate carrier, I.M. day 0 and 21, sera day 29-30. The format is in vivo. On the technique in general: In an ELISA, binding on a coated surface is turned into a signal by an enzyme label.
Turning to “NebGGTGNeb (DNA NGGTGN; Nebularine at both ends, sugar and linkages not given here, further chemistry not given here) [SEQ ID NO: 1, 5′-OH, 3′-OH non-DNA base-containing polynucleotide]”, the “Anti-HSA IgG antibody titers (head: IgG total Anti-H1N1 titers), Mean” value (from here on “Anti-HSA IgG antibody titers”) came out at 88.

As to “GGGTGGNebNebNeb (DNA GGGTGGNNN; Three 3' nebularines, sugar and linkages not given here, further chemistry not given here) [SEQ ID NO: 5, 5′-OH, 3′-OH non-DNA base-containing polynucleotide]”, the “Anti-HSA IgG antibody titers” value stood at 14516.

For the substance “GGGTGGIII (DNA GGGTGGNNN; Three 3' inosines, sugar and linkages not given here, further chemistry not given here) [SEQ ID NO: 7, 5′-OH, 3′-OH non-DNA base-containing polynucleotide]”, the “Anti-HSA IgG antibody titers” value stood at 168.

On to UUGTUU [SEQ ID NO: 2], for which the “Anti-HSA IgG antibody titers” value came out at 0.

Regarding “GNebG (DNA GNG; Central nebularine, sugar and linkages not given here, further chemistry not given here) [SEQ ID NO: 4, 5′-OH, 3′-OH non-DNA base-containing polynucleotide]”, the “Anti-HSA IgG antibody titers” value is 5662.

As for “GUG (DNA GNG; Central uracil in DNA, sugar and linkages not given here, further chemistry not given here) [SEQ ID NO: 8, 5′-OH, 3′-OH non-DNA base-containing polynucleotide]”, the “Anti-HSA IgG antibody titers” value is reported as 2.

On to IIGTII [SEQ ID NO: 3], for which the “Anti-HSA IgG antibody titers” value is on record as 364.

As to “GIG (DNA GNG; Central inosine, sugar and linkages not given here, further chemistry not given here) [SEQ ID NO: 6, 5′-OH, 3′-OH non-DNA base-containing polynucleotide]”, the “Anti-HSA IgG antibody titers” value is reported as 4003.

For “GGGTGGUUU (DNA GGGTGGNNN; Three 3' uracils, sugar and linkages not given here, further chemistry not given here) [SEQ ID NO: 9, 5′-OH, 3′-OH non-DNA base-containing polynucleotide]”, the “Anti-HSA IgG antibody titers” value was 0.
